Source: patent US7893077B2, “Bisaryl-sulfonamides” (Amgen Inc., priority 2004, dated 2011)

By UniProt entry, the sequences of proteins in these tests, tags left out.
UniProt P37231, whole entry: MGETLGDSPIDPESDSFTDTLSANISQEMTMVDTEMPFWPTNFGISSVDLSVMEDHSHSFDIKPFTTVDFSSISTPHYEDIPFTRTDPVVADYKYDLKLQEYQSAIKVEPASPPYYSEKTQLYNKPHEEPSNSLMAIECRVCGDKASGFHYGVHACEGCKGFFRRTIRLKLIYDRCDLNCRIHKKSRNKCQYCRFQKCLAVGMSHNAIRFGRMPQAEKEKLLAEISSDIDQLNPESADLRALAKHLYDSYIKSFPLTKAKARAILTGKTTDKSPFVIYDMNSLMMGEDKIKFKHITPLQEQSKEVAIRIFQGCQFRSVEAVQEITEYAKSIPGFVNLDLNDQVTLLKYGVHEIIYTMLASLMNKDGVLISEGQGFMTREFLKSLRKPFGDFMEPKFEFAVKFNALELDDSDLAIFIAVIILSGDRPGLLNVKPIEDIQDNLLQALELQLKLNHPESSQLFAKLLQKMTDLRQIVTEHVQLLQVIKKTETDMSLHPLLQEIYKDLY

Biological target: PPARγ (Homo sapiens, UniProt P37231)
Test: PPARγ ligand binding assay utilizing [3H]-BRL 49653 as the radioligand (filtration)
Details: read-out: PPARγ Binding IC50 Filtration; concentration required to reduce by 50% the specific binding of [3H]-BRL 49653
In short: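 Displacement of 10 nM [3H]-BRL 49653 from PPARγ-GST fusion protein in Tris-HCl pH 8.0 buffer with KCl, DTT, BSA and NP-40, 15 min incubation, then glutathione-bead capture for 1 h. Bound radioactivity counted after filtration washes; IC50 is concentration giving 50% loss of specific binding, reported in ranges.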

Row | SMILES | IC50 [nM]
1 | CC(=O)c1cc(NS(=O)(=O)c2cc(C(F)(F)F)cc(C(F)(F)F)c2)cc(Cl)c1Oc1ccc(S(=O)(=O)N2CCOCC2)cc1 | < 10000
2 | CC(=O)c1cc(NS(=O)(=O)c2ccc(S(C)(=O)=O)cc2)cc(Cl)c1Oc1ccc(S(=O)(=O)N2CCOCC2)cc1 | < 30000
3 | Cc1cc(Oc2ccc(NS(=O)(=O)c3cc(F)c(Cl)cc3F)cc2C(=O)NC(C)C)ccc1S(=O)(=O)N1CCCC1 | < 10000
4 | CCOC(=O)c1cc(NS(=O)(=O)c2ccc(Cl)cc2Cl)ccc1Oc1ccc(S(=O)(=O)N2CCOCC2)c(C)c1 | < 30000
5 | CC(=O)c1cc(NS(=O)(=O)c2c(Cl)cc(C(F)(F)F)cc2Cl)cc(Cl)c1Oc1ccc(S(=O)(=O)N2CCOCC2)cc1 | < 10000
6 | CCN(CC)S(=O)(=O)c1ccc(Oc2ccc(NS(=O)(=O)c3ccc(C(F)(F)F)cc3Cl)cc2C)cc1 | < 10000
7 | CC(C)CC(=O)c1cc(NS(=O)(=O)c2ccc(Cl)cc2Cl)nnc1Sc1ccc(S(=O)(=O)N2CCCCC2)cc1 | < 10000
8 | Cc1cc(S(=O)(=O)Nc2ccc(Sc3ccc(S(=O)(=O)N4CCCCC4)cc3)c(C(=O)OC(C)C)c2)c(Cl)cc1Cl | < 1000
9 | COC(=O)c1cc(NS(=O)(=O)c2ccc(C(F)(F)F)cc2Cl)cc(Cl)c1Oc1ccc(S(=O)(=O)N2CCOCC2)cc1 | < 1000
10 | CCN(CC)S(=O)(=O)c1ccc(Oc2ccc(NS(=O)(=O)c3ccc(OC(F)(F)F)cc3)cc2C)cc1 | < 30000
11 | CC(=O)c1cc(NS(=O)(=O)c2cc(Cl)ccc2Cl)cc(Cl)c1Oc1ccc(S(=O)(=O)N2CCOCC2)cc1 | < 1000
12 | CCNC(=O)c1cc(NS(=O)(=O)c2cc(F)c(Cl)cc2F)ccc1Oc1ccc(S(=O)(=O)N2CCCC2)c(C)c1 | < 10000
13 | CC(=O)c1cc(NS(=O)(=O)c2ccc(C)cc2)cc(Cl)c1Oc1ccc(S(=O)(=O)N2CCOCC2)cc1 | < 10000
14 | CC1CC(C)CN(S(=O)(=O)c2ccc(Oc3c(Cl)cc(NS(=O)(=O)c4ccc(C(F)(F)F)cc4Cl)cc3Cl)cc2)C1 (stereo not shown) | < 1000
15 | CON(C)C(=O)c1cc(NS(=O)(=O)c2ccc(Cl)cc2Cl)ccc1Oc1ccc(S(=O)(=O)N2CCCCC2)cc1 | < 1000
16 | Cc1cc(S(=O)(=O)Nc2ccc(Oc3ccc(S(=O)(=O)N4CCCCC4)cc3)c(C(=O)N3CCCC3)c2)c(Cl)cc1Cl | < 1000

More lines, now with the values ahead:

Row | IC50 [nM] | SMILES
17 | < 1000 | CCNS(=O)(=O)c1ccc(Oc2c(Cl)cc(NS(=O)(=O)c3ccc(C(F)(F)F)cc3Cl)cc2Cl)cc1
18 | < 1000 | CCNC(=O)c1cc(NS(=O)(=O)c2ccc(Cl)cc2Cl)ccc1Oc1ccc(S(=O)(=O)N2CCCC2)c(C)c1
19 | < 1000 | CC(=O)c1cc(NS(=O)(=O)c2ccc(Cl)cc2Cl)ccc1Oc1ccc(S(=O)(=O)N2CCCCC2)cc1
20 | < 1000 | CC(=O)c1cc(NS(=O)(=O)c2ccc(Cl)cc2Cl)cc(Cl)c1Oc1ccc(S(=O)(=O)N2CCCCC2)c(C)c1
21 | < 1000 | CC1CCCN(S(=O)(=O)c2ccc(Oc3c(Cl)cc(NS(=O)(=O)c4ccc(C(F)(F)F)cc4Cl)cc3Cl)cc2)C1 (stereo not shown)
22 | < 1000 | COC(=O)CS(=O)(=O)c1ccc(Sc2c(Cl)cc(NS(=O)(=O)c3ccc(C(F)(F)F)cc3Cl)cc2Cl)cc1
23 | < 1000 | Cc1cc(S(=O)(=O)N2CCCC2)ccc1Oc1c(Cl)cc(NS(=O)(=O)c2ccc(C(F)(F)F)cc2Cl)cc1Cl
24 | < 1000 | Cc1cc(S(=O)(=O)Nc2ccc(Oc3ccc(S(=O)(=O)N4CCCCC4)cc3)c(C(=O)NC(C)C)c2)c(Cl)cc1Cl
25 | < 1000 | CC(C)OCc1cc(NS(=O)(=O)c2ccc(C(F)(F)F)cc2Cl)ccc1Oc1ccc(S(=O)(=O)N2CCCCC2)cc1
26 | < 1000 | Cc1cc(S(=O)(=O)Nc2ccc(Oc3ccc(S(=O)(=O)N4CCCCC4)cc3)c(C(=O)N(C)C(C)C)c2)c(Cl)cc1Cl
27 | < 1000 | O=C(c1cc(NS(=O)(=O)c2ccc(Cl)cc2Cl)ccc1Oc1ccc(S(=O)(=O)N2CCCCC2)cc1)N1CCCC1
28 | < 1000 | CCN(CC)S(=O)(=O)c1ccc(Oc2c(C)cc(NS(=O)(=O)c3cc(F)cc(Cl)c3C)cc2Cl)cc1
29 | < 1000 | CCNC(=O)CS(=O)(=O)c1ccc(Sc2c(Cl)cc(NS(=O)(=O)c3ccc(C(F)(F)F)cc3Cl)cc2Cl)cc1
30 | < 1000 | Cc1cc(Oc2ccc(NS(=O)(=O)c3ccc(Cl)cc3Cl)cc2C(=O)NC(C)C)ccc1S(=O)(=O)N1CCCC1
31 | < 1000 | CCN(CC)S(=O)(=O)c1ccc(Oc2c(Cl)cc(NS(=O)(=O)c3ccc(C(F)(F)F)cc3Cl)cc2C(C)(F)F)cc1
32 | < 1000 | CCN(CC)S(=O)(=O)c1ccc(Oc2c(Cl)cc(NS(=O)(=O)c3ccc(C(F)(F)F)cc3Cl)cc2C(C)=O)cc1
33 | < 1000 | Cc1cc(Oc2ccc(NS(=O)(=O)c3ccc(C(F)(F)F)cc3Cl)cc2C(=O)N(C)C(C)C)ccc1S(=O)(=O)N1CCCCC1
34 | < 1000 | Cc1cc(Oc2c(Cl)cc(NS(=O)(=O)c3ccc(C(F)(F)F)cc3Cl)cc2Cl)ccc1S(=O)(=O)N1CCCCC1
